Chains of the proteins cited; added tags and fusions are not shown. Residues count along the entry.
UniProt Q6RI86, whole entry, looked up: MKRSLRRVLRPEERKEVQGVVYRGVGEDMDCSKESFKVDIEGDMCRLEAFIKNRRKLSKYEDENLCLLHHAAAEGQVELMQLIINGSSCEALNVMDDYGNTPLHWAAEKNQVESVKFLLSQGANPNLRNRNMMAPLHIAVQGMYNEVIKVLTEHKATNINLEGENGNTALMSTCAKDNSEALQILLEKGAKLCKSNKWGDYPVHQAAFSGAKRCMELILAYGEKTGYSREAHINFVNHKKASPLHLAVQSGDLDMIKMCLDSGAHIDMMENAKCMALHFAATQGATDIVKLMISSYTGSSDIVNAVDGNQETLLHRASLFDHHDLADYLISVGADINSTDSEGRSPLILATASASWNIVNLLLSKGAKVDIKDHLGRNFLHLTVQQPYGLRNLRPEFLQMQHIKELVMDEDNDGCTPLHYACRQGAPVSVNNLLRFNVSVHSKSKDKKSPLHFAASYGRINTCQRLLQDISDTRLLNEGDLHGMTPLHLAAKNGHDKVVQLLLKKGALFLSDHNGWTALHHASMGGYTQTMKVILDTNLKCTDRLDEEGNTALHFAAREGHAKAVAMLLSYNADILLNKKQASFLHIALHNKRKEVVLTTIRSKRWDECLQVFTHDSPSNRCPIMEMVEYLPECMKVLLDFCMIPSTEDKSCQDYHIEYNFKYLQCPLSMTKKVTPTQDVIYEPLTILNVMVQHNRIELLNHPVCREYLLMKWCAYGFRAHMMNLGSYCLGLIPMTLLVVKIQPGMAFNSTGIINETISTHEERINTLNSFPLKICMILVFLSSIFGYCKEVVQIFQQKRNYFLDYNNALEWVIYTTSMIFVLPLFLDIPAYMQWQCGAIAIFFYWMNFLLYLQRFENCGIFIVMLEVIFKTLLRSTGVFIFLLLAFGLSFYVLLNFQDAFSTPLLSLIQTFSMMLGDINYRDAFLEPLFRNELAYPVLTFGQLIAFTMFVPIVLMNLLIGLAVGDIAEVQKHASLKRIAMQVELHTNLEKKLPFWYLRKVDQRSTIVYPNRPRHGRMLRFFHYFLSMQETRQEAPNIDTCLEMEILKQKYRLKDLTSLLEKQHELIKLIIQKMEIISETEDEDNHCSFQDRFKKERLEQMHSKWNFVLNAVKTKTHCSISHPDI
UniProt Q8BLA8, whole entry, looked up: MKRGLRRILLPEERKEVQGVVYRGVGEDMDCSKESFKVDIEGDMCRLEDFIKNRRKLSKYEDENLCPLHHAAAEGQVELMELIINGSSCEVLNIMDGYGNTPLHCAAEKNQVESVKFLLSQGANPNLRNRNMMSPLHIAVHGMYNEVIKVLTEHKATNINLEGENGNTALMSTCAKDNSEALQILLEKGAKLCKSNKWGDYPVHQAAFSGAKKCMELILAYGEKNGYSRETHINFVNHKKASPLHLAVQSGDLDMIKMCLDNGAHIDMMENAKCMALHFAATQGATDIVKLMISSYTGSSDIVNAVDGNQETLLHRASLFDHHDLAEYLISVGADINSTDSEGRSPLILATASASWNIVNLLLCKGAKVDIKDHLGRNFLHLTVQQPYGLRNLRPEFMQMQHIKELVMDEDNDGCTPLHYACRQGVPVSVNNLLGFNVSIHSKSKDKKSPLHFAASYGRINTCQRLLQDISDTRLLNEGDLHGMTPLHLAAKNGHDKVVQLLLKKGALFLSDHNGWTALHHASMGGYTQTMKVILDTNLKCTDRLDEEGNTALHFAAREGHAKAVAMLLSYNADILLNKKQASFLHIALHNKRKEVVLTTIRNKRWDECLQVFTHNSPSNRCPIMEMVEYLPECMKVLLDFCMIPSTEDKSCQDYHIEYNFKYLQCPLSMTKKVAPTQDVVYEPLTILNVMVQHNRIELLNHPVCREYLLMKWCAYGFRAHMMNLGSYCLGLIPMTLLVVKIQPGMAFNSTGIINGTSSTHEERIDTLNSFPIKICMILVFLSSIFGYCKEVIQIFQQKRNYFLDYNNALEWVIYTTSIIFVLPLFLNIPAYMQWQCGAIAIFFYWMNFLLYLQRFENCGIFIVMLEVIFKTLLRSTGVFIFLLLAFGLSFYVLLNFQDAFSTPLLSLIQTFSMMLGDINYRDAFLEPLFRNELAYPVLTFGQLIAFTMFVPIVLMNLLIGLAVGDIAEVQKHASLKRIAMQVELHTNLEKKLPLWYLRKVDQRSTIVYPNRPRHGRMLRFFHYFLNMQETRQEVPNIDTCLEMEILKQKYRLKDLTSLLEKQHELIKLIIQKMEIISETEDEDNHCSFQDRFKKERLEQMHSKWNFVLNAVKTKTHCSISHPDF
UniProt O75762, whole entry, looked up: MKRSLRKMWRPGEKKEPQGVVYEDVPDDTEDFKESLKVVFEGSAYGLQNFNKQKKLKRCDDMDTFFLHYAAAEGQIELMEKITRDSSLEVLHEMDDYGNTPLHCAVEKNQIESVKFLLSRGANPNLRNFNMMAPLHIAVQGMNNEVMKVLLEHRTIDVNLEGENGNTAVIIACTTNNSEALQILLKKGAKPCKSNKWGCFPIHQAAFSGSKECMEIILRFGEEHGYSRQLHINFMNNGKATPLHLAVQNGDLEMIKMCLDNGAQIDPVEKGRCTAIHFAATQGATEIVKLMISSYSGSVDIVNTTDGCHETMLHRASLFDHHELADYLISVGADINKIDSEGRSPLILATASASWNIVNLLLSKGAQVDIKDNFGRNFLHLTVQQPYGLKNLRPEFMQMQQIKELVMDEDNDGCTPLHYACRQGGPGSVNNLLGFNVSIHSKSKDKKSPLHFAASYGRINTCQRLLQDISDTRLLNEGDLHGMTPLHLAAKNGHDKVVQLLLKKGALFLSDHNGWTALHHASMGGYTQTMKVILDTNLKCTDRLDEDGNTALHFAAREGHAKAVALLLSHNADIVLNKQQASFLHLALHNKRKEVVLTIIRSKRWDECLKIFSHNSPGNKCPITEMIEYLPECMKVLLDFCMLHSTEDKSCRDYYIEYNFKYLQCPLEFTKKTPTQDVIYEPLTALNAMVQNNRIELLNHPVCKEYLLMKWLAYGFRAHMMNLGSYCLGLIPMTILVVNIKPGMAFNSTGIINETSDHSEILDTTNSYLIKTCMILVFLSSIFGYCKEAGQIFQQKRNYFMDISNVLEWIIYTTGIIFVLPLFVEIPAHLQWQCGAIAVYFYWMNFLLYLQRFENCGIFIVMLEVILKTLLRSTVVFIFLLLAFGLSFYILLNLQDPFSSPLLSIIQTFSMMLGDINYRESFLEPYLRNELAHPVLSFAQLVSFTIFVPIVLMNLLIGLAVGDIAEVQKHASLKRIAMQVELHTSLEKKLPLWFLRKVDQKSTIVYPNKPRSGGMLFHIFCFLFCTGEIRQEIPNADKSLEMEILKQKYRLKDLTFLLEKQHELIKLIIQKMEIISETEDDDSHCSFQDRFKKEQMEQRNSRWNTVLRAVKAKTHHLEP
UniProt A0A1D5QMT1, 1-1144: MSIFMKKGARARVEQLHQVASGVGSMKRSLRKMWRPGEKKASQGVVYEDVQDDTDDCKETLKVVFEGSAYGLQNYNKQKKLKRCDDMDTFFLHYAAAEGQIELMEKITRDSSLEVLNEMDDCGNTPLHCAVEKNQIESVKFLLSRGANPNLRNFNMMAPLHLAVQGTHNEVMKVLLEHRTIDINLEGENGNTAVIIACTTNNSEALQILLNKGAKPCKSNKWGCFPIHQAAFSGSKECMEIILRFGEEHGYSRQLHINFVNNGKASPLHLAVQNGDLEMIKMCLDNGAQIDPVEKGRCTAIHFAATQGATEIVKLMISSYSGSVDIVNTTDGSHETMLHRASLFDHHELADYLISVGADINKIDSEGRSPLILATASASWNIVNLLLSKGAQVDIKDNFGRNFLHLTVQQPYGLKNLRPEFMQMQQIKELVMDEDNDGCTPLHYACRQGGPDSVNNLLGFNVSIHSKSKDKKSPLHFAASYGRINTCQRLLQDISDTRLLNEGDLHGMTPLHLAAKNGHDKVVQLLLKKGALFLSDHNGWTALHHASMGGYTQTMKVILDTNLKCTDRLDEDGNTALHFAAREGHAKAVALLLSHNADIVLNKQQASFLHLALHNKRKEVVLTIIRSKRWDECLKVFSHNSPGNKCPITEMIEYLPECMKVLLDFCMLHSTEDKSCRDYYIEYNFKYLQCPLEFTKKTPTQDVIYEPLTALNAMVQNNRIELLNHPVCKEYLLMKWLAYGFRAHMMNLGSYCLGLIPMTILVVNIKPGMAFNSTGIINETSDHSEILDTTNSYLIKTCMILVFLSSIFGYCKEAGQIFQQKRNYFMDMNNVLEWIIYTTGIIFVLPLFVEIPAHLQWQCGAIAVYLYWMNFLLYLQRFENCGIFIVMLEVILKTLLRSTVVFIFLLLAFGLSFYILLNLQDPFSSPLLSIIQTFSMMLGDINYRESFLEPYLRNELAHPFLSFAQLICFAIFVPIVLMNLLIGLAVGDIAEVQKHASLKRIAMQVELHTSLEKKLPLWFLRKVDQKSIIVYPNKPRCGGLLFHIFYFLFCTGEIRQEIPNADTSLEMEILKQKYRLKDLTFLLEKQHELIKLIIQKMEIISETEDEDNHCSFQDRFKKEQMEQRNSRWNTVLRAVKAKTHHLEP

According to ChEMBL document CHEMBL5705895, “Species comparison and pharmacological characterization of human, monkey, rat, and mouse TRPA1 channels” (J Pharmacol Exp Ther, 2012):

How the values were obtained:
[1] = molecular target: Transient receptor potential cation channel subfamily A member 1 (Rattus norvegicus, UniProt Q6RI86); experiment: Agonist activity at full length rat TRPA1 transfected in HEK293F cells assessed as increase in Ca2+ influx by FLIPR calcium assay
[2] = molecular target: Transient receptor potential cation channel subfamily A member 1 (Mus musculus, UniProt Q8BLA8); experiment: Agonist activity at full length mouse TRPA1 transfected in HEK293F cells assessed as increase in Ca2+ influx by FLIPR calcium assay
[3] = molecular target: Transient receptor potential cation channel subfamily A member 1 (Homo sapiens, UniProt O75762); experiment: Antagonist activity at full length human TRPA1 transfected in HEK293F cells assessed as blockade of MO-induced TRPA1 channel activation by measuring Ca2+ influx in presence of 30 uM MO by FLIPR calcium assay
[4] = molecular target: Transient receptor potential cation channel subfamily A member 1 (Macaca mulatta, UniProt A0A1D5QMT1); experiment: Antagonist activity at full length rhesus monkey TRPA1 transfected in HEK293F cells assessed as blockade of MO-induced TRPA1 channel activation by measuring Ca2+ influx in presence of 120 uM MO by FLIPR calcium assay

Cc1ccc(C(=O)NC(Sc2ccc([N+](=O)[O-])cc2)C(Cl)(Cl)Cl)cc1 (centres undefined)
EC50 [1]: 880 nM | EC50 [2]: 930 nM | IC50 [3]: 1000 nM | IC50 [4]: 2700 nM
